# Binding of CDR-mutated scFvs to a peptide of the spike HR2 region

Target peptide (SARS-CoV-2 spike, HR2 region): PDVDLGDISGINAS

Each scFv is VH, a 15-residue (Gly4Ser)3 linker, VL, as in the parent Ab-14, and differs from it in the CDRs of the heavy chain only.
VH: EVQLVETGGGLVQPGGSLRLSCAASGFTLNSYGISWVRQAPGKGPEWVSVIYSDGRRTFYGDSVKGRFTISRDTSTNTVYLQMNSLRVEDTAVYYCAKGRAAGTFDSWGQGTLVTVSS
VL: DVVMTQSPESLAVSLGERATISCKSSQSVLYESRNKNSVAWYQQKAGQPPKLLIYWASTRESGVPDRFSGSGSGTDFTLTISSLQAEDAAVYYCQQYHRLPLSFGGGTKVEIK

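Designed CDR sequences, proposed from the first random library and measured here. Group labels follow the data file (Rand: our label for a block that the file lists under HC and that is probably the random mutants of the ten best first-round binders; En: ensemble of fine-tuned language models; HC: hill climbing; Gen: genetic algorithm; Gibbs: Gibbs sampling; a sequence that several methods proposed may carry one label only). In AlphaSeq, yeast of one mating type display the scFv and yeast of the other type display the target. Pairs that bind mate more often; barcode pairs of the diploids are counted by sequencing. Read counts were normalised to the haploid input and turned into Kd by a linear fit to BCL2-family pairs of known affinity, for each replicate. There are six technical replicates.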

Each variant is given by its three heavy chain CDRs, as the data file delimits them; those of the parent are GFTLNSYGIS, VIYSDGRRTFYGDSVK, GRAAGTFDS. This list holds designs with more than six substitutions. The Kd shown is the geometric mean over detected replicates; a lower Kd is a better binder. A pair that was not seen in any replicate is written "not detected"; this usually means weak binding, but a binder can also be missed.

CDR-H1	CDR-H2	CDR-H3	group	Kd (apparent)	detected
GFDLNEYGIS	VIYADGMRSAYADSVK	GNQAGTFDV	En_Gen	730 pM	6/6
GFSLDEYGIS	VIYADGNRSAYIDAVK	GNYGSDFNE	En_Gibbs	not detected	0/6
GEVLDEYGIS	VIYADGQRVQYSDNVK	GLLSGVFDM	En_Gibbs	710 nM	1/6
GFDLDEYGIS	VIYADGMRTAYTDDVK	GNVAGTFDL	En_Gen	450 pM	6/6
GFKLEEYGIS	VIYADGQRVAYVDKVK	GQHAGMFDQ	En_Gibbs	not detected	0/6
GFDLNEYGIS	VIYADGVRTQYADSVK	GENAGTFDI	En_Gen	6.1 nM	6/6
GFDLNEYGIS	VIYADGMRTAYADDVK	GGNAGTFDM	En_Gen	1.6 nM	6/6
GFDLEEYGIS	VIYADGRRTFYADSVK	GEIAGTFDL	En_HC	340 pM	6/6
GFDLNEYGIS	VIYADGRRTAYSDSVK	GQTGGTFDE	En_HC	410 pM	6/6
GFDLNEYGIS	VIYADGVRTAYVDSVK	GENAGTFDV	En_Gen	280 pM	6/6
GFDLEDYGIS	VIYADGRRTSYADSVK	GEAAGTFDL	En_HC	490 pM	5/6
GFGINEYGIS	VIYADGMRSFYANSVK	GAHGGYMVW	En_Gibbs	not detected	0/6
GFDLNEYGIS	VIYADGRRTFYADSVK	GKEAGTFDQ	En_HC	240 pM	6/6
GNDIDEYGIS	VIYADGRRTMYDEAVK	GEIAGSFFH	En_Gibbs	not detected	0/6
GFDLNEYGIS	VIYADGRRTFYSDSVK	GENGGTFDV	En_HC	1.8 nM	6/6
GFNLDEYGIS	VIYADGQRTAYAQHVK	GTGGMGRGV	En_Gibbs	not detected	0/6
GFDLNEYGIS	VIYADGRRTFYADSVK	GQLAGTFDQ	En_HC	360 pM	6/6
GFNLDEYGIS	VIYADGMRTFYSDSVK	GEVAGTFDV	En_HC	190 pM	6/6
GFDLDEMGIS	VIYADGVRTAYIDQVK	GMKGDFMDT	En_Gibbs	not detected	0/6
GFDLNEYGIS	VIYADGRRTFYADNVK	GNVAGTFDI	En_HC	690 pM	6/6
GFDLKEYGIS	VIYADGERAGYADNVK	GEAGGKFLV	En_Gibbs	110 nM	3/6
GFEIQEFGIS	VIYADGRRTAYAENVK	GTLGGTFDT	En_Gibbs	1.6 nM	6/6
GFDLNEYGIS	VIYADGSRTAYVDSVK	GENAGTFDV	En_Gen	1.1 nM	6/6
GESLDEYGIS	VIYADGMRTAYTDDVK	GLVAATLVD	En_Gibbs	49 nM	1/6
GEDLMEYGIS	VIYADGERKSYVNSVK	GGVSVNFSS	En_Gibbs	not detected	0/6
GFNLDEYGIS	VIYADGQRTAYAQHVK	GTGGMDRGV	En_Gibbs	14 nM	1/6
GFGLDEYGIS	VIYADGFRAYYHDNVK	GFNGGVDIL	En_Gibbs	not detected	0/6
GFDIMEYGIS	VIYADGMRQAYLNKVK	GNNGSSGLF	En_Gibbs	not detected	0/6
GFDLNEYGIS	VIYADGIRTFYADSVK	GNEAGTFDV	En_HC	410 pM	6/6
GFDLSEYGIS	VIYADGTRKSYADNVK	GDYHGVVST	En_Gibbs	not detected	0/6
GFDLDEMGIS	VIYADGRRTAYSNAFK	GNNVYGLMV	En_Gibbs	not detected	0/6
GFDLNEYGIS	VIYADGRRSFYADSVK	GQLAGTFDN	En_HC	200 pM	6/6
GFDLNEYGIS	VIYADGVRSAYADSVK	GNVAGTFDI	En_Gen	720 pM	6/6
GFDLDEYGIS	VIYADGMRTAYADNVK	GETAGTFDV	En_Gen	520 pM	6/6
GFDLNEYGIS	VIYADGQRTAYVDSVK	GNEAGTFDV	En_Gen	4.1 nM	6/6
LQTLNSPGIS	VIYSDGRRTFLADSVK	GQLAGTFDS	Rand	not detected	0/6
GESLNEYGIS	VIYADGLRSKYADKFK	GQEAGYFDV	En_Gibbs	not detected	0/6
GFDLNEYGIS	VIYADGMRTAYSDSVK	GSNAGTFDQ	En_Gen	790 pM	6/6
GFDLNEYGIS	VIYADGRRTSYIDSVK	GEQAGTFDV	En_HC	320 pM	6/6
GFNIDEYGIS	VIYADGMRTAYSNAVK	GNVNGGTFS	En_Gibbs	12 nM	1/6
GDDLQEYGIS	VIYADGLRTAYGNKVK	GGSNGRVTV	En_Gibbs	not detected	0/6
GFDLNEYGIS	VIYADGIRSKYTDNVK	GMLTGTAVQ	En_Gibbs	not detected	0/6
GFDLNEYGIS	VIYADGRRTFYSDSVK	GQLAGTFDF	En_HC	250 pM	6/6
GFDLNEYGIS	VIYADGRRTAYADSVK	GEVAGTFVS	En_HC	480 pM	6/6
GFSLDEQGIS	VIYADGIRQSYAQKVK	GQYGGDFIE	En_Gibbs	not detected	0/6
GFDVDEFGIS	VIYADGFRTSYAADVK	GSQVGNGLV	En_Gibbs	29 nM	1/6
GQSLDDYGIS	VIYADGQRNAAADEVK	GENAGTFDI	En_Gibbs	220 nM	1/6
GFDLEDYGIS	VIYADGRRTFYSDSVK	GEIAGTFDS	En_HC	600 pM	6/6

For reference, 3 entries of the list once more:

CDR-H1	CDR-H2	CDR-H3	group	Kd (apparent)	detected
GFDLNEYGIS	VIYADGIRSKYTDNVK	GMLTGTAVQ	En_Gibbs	not detected	0/6
LQTLNSPGIS	VIYSDGRRTFLADSVK	GQLAGTFDS	Rand	not detected	0/6
GFGINEYGIS	VIYADGMRSFYANSVK	GAHGGYMVW	En_Gibbs	not detected	0/6

The parent sequence was in this pool as ten entries: three were never detected, three once, and four in most replicates, with averages from 2.2 nM to 240 nM. A sequence measured in both rounds can read differently, since the two assays cover different ranges. As a blank, each scFv also met three strains without target: over all heavy chain designs, 1% of these pairings were detected, typically at 120 nM and seldom below 7.0 nM. The authors' rule: three or more of the six replicates give a measured affinity, fewer mean a poor binder.

From the AlphaSeq antibody data of Li et al. 2023 (doi:10.1038/s41467-023-39022-2), copy in the FLAb collection.